Data from ChEMBL document CHEMBL1134650.

The chains behind the UniProt entries cited, without tags or fusion partners. Where a name states a change or a piece, a line headed by the entry shows the natural chain unless it says otherwise.
UniProt P41144: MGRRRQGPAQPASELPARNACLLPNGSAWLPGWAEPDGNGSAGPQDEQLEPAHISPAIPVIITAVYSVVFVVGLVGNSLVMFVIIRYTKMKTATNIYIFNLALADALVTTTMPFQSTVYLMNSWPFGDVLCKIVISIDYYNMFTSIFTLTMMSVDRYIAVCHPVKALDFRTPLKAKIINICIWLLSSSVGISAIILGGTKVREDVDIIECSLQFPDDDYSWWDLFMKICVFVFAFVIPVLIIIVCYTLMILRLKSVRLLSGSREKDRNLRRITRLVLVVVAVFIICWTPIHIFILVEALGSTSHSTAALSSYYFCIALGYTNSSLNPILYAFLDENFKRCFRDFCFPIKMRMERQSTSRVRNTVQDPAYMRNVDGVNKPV

Test system: not listed separately
Assay: Binding affinity ratio between kappa and delta receptor

Structure (SMILES) | Ratio
CCN(CC)C(=O)c1ccc(N(c2ccccc2)[C@@H]2CCN(CC3CC3)C[C@@H]2C)cc1 | 120
C=C(C)CN1CC[C@@H](N(c2ccc(C(=O)N(CC)CC)cc2)c2cccc(OC)c2)[C@@H](C)C1 | > 100
C=CCN1C[C@H](C)[C@H](N(c2ccccc2)c2ccc(C(=O)N(CC)CC)cc2)C[C@H]1C | 62
C=CCN1CC[C@@H](N(c2ccc(C(=O)N(CC)CC)cc2)c2cccc(O)c2)[C@@H](C)C1 | 41
CCN(CC)C(=O)c1ccc(N(c2cccc(OC)c2)[C@@H]2CCN(CC3CC3)C[C@@H]2C)cc1 | > 210
C=C(C)CN1CC[C@@H](N(c2ccccc2)c2ccc(C(=O)N(CC)CC)cc2)[C@@H](C)C1 | > 210
C=CCN1C[C@H](C)[C@@H](N(c2ccccc2)c2ccc(C(=O)N(CC)CC)cc2)C[C@H]1C | 68
CCN(CC)C(=O)c1ccc(N(c2cccc(OC)c2)[C@@H]2CCN(C/C=C/c3ccccc3)C[C@@H]2C)cc1 | > 80
C/C=C/CN1CC[C@@H](N(c2ccccc2)c2ccc(C(=O)N(CC)CC)cc2)[C@@H](C)C1 | 602 and 1100
CCN(CC)C(=O)c1ccc(N(c2cccc(OC)c2)[C@@H]2CCN(C)C[C@@H]2C)cc1 | > 43
CCN(CC)C(=O)c1ccc(N(c2ccccc2)[C@@H]2CCN(CC3CC3)C[C@H]2C)cc1 | > 31
CCN(CC)C(=O)c1ccc(N(c2ccccc2)[C@@H]2CCN(C)C[C@H]2C)cc1 | 24
CCN(CC)C(=O)c1ccc(N(c2ccccc2)[C@@H]2CCN(C)C[C@@H]2C)cc1 | > 132
C=CCN1C[C@H](C)[C@H](N(c2ccccc2)c2ccc(C(=O)N(CC)CC)cc2)C[C@@H]1C | 55
C=CCN1CC[C@@H](N(c2ccc(C(=O)N(CC)CC)cc2)c2cccc(OC)c2)[C@H](C)C1 | 20
C=CCN1CC[C@@H](N(c2ccccc2)c2ccc(C(=O)N(CC)CC)cc2)[C@H](C)C1 | 69
C/C=C/CN1CC[C@@H](N(c2ccc(C(=O)N(CC)CC)cc2)c2cccc(OC)c2)[C@@H](C)C1 | 414
C=CCN1CC[C@@H](N(c2ccc(C(=O)N(CC)CC)cc2)c2cccc(OC)c2)[C@@H](C)C1 | > 339
CCN(CC)C(=O)c1ccc(N(c2cccc(OC)c2)[C@@H]2CCN(CC=C(C)C)C[C@@H]2C)cc1 | 170
CCN(CC)C(=O)c1ccc(N(c2ccccc2)[C@@H]2CCN(CC=C(C)C)C[C@@H]2C)cc1 | > 497
CCN(CC)C(=O)c1ccc(N(c2cccc(OC)c2)[C@@H]2CCN(C)C[C@H]2C)cc1 | 35
CCN(CC)C(=O)c1ccc(N(c2ccccc2)[C@@H]2CCN(C/C=C/c3ccccc3)C[C@@H]2C)cc1 | 200
CCN(CC)C(=O)c1ccc(N(c2cccc(OC)c2)[C@@H]2CCN(CC3CC3)C[C@H]2C)cc1 | > 33

Molecular target: Kappa-type opioid receptor (Cavia porcellus) (UniProt P41144)
Assay: Ability to stimulate binding to kappa-opioid receptor using GTP-gamma -S-binding assay in guinea pig caudate membranes, blocked with 6 nM nor-binaltorphimine (nor-BNI); NS=no stimulation

Structure (SMILES) | NS
CN(C(=O)Cc1ccccc1)[C@H]1CC[C@@]2(CCCO2)C[C@@H]1N1CCCC1 | inactive

Several values for one entry are separate records, joined by “and”; a condition that tells them apart may be missing. Identical values can stand only once. Activity calls are given as the source filed them. No cut-off for these calls is given here.
